Measurements from paper PMC6557486.

B1: wild-type Moorella thermoacetica cyanuric acid hydrolase (MCAH) (Moorella thermoacetica ATCC 39073) (protein)
chain: MQKVEVFRIPTASPDDISGLATLIDSGKINPAEIVAILGKTEGNGCVNDFTRGFATQSLAMYLAEKLGISREEVVKKVAFIMSGGTEGVMTPHITVFVRKDVQEPAKPGKRLAVGVAFTRDFLPEELGRMEQVNEVARAVKEAMKDAQIDDPRDVHFVQIKCPLLTAERIEDAKRRGKDVVVNDTYKSMAYSRGASALGVALALGEISADKISNEAICHDWNLYSSVASTSAGVELLNDEIIVVGNSTNSASDLVIGHSVMKDAIDADAVRAALKDAGLKFDCCPPAEELAKIVNVLAKAEAASSGTVRGRRNTMLDDSDINHTRSARAVVNAVIASVVGDPMVYVSGGAEHQGPDGGGPIAVIARV

Experiments:
[1] = test system: O=c1[nH]c(=O)[nH]c(=O)[nH]1; assay: purified protein; conditions: 25 mM Tris pH 8.0
purified protein = substrate: O=c1[nH]c(=O)[nH]c(=O)[nH]1; assay: purified protein; conditions: 25 mM Tris pH 8.0; remark: listed apart in the source

| Molecule | Km [1] | kcat [1] | Km (purified protein) | kcat (purified protein) |
| --- | --- | --- | --- | --- |
| RMCAH (re-engineered Moorella cyanuric acid hydrolase) (Moorella thermoacetica ATCC 39073; A291D/DEL283-287/E104A/E288D/F281S/K107A/K280R/K292R/L279I/L290M/Q103A) | 276 ± 86 µM | 73 ± 17 s⁻¹ |  |  |
| B1 |  |  | 318 ± 95 µM | 78 ± 18 s⁻¹ |
